Test results from patent publication US20210348119A1, “COMPOSITIONS AND METHODS FOR CELL CULTURE” (The United States of America as Represented By The …, priority 2018, published 2021).

Tested on: H9 cells
Experiment: qHTS for survival of dissociated H9 cells (CellTiter-Glo, 24 hours after seeding)
Assay type: cell-based, human
Excerpt: FIG. 2 schematically illustrates qHTS procedure.
All the screed compounds were received pre-plated at the pre-determined concentrations. […] Curve classification is explained in Huang et al. “Chemical genomics profiling of environmental chemical modulation of human nuclear receptors” Environ. Health. Perspect.

COc1ccc(-c2c(C)c(C(=O)NN3CCCCC3)nn2-c2ccc(Cl)cc2Cl)cc1 [NIDA-41020]
Max (maximum activity value from all tested concentrations) (H9 cell survival normalized to 10 μM Y-27632 (taken to be 100%)): 26.91%
AC50 (H9 cell survival, CellTiter-Glo 24 hours after seeding, read-out: AC50 (concentration at 50% efficacy)): 23.3 µM
Efficacy (activity range between predicted activities at zero and infinite doses, Hill equation) (H9 cell survival, normalized to 10 μM Y-27632): 30.5
